Results as given in US20090099157A1, “TETRAHYDRO-PYRAZOLO-PYRIDINE THIOETHER MODULATORS OF CATHEPSIN S” (priority 2007, published 2009).

Protein sequences, listed by entry. Tags and fused reporters are not part of them. Residues count along the entry.
UniProt P25774, 115-331: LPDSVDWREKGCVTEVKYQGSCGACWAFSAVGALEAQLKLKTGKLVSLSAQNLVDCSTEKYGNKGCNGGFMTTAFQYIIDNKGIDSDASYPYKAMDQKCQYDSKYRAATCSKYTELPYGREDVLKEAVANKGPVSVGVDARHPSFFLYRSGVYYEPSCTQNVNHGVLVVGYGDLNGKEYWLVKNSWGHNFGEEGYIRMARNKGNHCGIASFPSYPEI

Biological target: Recombinant human cathepsin S (CatS) (Homo sapiens, UniProt P25774)
Assay: biochemical

IC50 [nM] | SMILES
50 | CN(C)S(=O)(=O)NCCSc1cc(-c2nn(CC(O)CN3CCC(N4CCCC4=O)CC3)c3c2CN(S(C)(=O)=O)CC3)ccc1C(F)(F)F (stereo not shown) [Example 831, N′-[2-({5-[1-{2-Hydroxy-3-[4-(2-oxopyrrolidin-1-yl)piperidin-1-yl]propyl}-5-(methylsulfonyl)-4,5,6,7-tetrahydro-1H-pyrazolo[4,3-c]pyridin-3-yl]-2-(trifluoromethyl)phenyl}sulfanyl)ethyl]-N,N-dimethylsulfamide]
150 | CC(=O)NC1CCN(CCCn2nc(-c3ccc(C(F)(F)F)c(SCCN4CCCCC4)c3)c3c2CCN(S(C)(=O)=O)C3)CC1 [Example 529, N-(1-{3-[5-(Methylsulfonyl)-3-{3-[(2-piperidin-1-ylethyl)sulfanyl]-4-(trifluoromethyl)phenyl}-4,5,6,7-tetrahydro-1H-pyrazolo[4,3-c]pyridin-1-yl]propyl}piperidin-4-yl)acetamide]
130 | CS(=O)(=O)N1CCc2c(c(-c3ccc(C(F)(F)F)c(SCCN4CCCC(F)(F)C4)c3)nn2C[C@@H](O)CN2CCCCCC2)C1 [Example 574, (2S)-1-Azepan-1-yl-3-{3-[3-{[2-(3,3-difluoropiperidin-1-yl)ethyl]sulfanyl}-4-(trifluoromethyl)phenyl]-5-(methylsulfonyl)-4,5,6,7-tetrahydro-1H-pyrazolo[4,3-c]pyridin-1-yl}propan-2-ol]
95 | CS(=O)(=O)NCCSc1cc(-c2nn(CC(O)CN3CCC(Oc4ncccn4)CC3)c3c2CN(S(C)(=O)=O)CC3)ccc1C(F)(F)F (stereo not shown) [Example 768, N-[2-({5-[1-{2-Hydroxy-3-[4-(pyrimidin-2-yloxy)piperidin-1-yl]propyl}-5-(methylsulfonyl)-4,5,6,7-tetrahydro-1H-pyrazolo[4,3-c]pyridin-3-yl]-2-(trifluoromethyl)phenyl}sulfanyl)ethyl]methanesulfonamide]
700 | CS(=O)(=O)N1CCc2c(c(-c3ccc(C(F)(F)F)c(SCCNCc4ccccc4)c3)nn2CCCN2CCC(N3CCCC3=O)CC2)C1 [Example 29, 1-[1-(3-{3-[3-(2-Benzylamino-ethylsulfanyl)-4-trifluoromethyl-phenyl]-5-methanesulfonyl-4,5,6,7-tetrahydro-pyrazolo[4,3-c]pyridin-1-yl}-propyl)-piperidin-4-yl]-pyrrolidin-2-one]
70 | CC1CCCN(CCSc2cc(-c3nn(CCCN4CCC(N5CCCC5=O)CC4)c4c3CN(S(C)(=O)=O)CC4)ccc2C(F)(F)F)C1 (stereo not shown) [Example 8, 1-{1-[3-(5-Methanesulfonyl-3-{3-[2-(3-methyl-piperidin-1-yl)-ethylsulfanyl]-4-trifluoromethyl-phenyl}-4,5,6,7-tetrahydro-pyrazolo[4,3-c]pyridin-1-yl)-propyl]-piperidin-4-yl}-pyrrolidin-2-one]
410 | O=C(CSc1cc(-c2nn(CC(O)CN3CCC(N4CCCC4=O)CC3)c3c2CNCC3)ccc1C(F)(F)F)N1CCOCC1 (stereo not shown) [Example 267, 1-{1-[2-Hydroxy-3-(3-{3-[(2-morpholin-4-yl-2-oxoethyl)sulfanyl]-4-(trifluoromethyl)phenyl}-4,5,6,7-tetrahydro-1H-pyrazolo[4,3-c]pyridin-1-yl)propyl]piperidin-4-yl}pyrrolidin-2-one]
1380 | CC(=O)N1CCN(CCSc2cc(-c3nn(CC(O)CN4CCC(c5ccccn5)CC4)c4c3CN(S(C)(=O)=O)CC4)ccc2C(F)(F)F)CC1 (stereo not shown) [Example 186, 1-{3-[3-{[2-(4-Acetylpiperazin-1-yl)ethyl]sulfanyl}-4-(trifluoromethyl)phenyl]-5-(methylsulfonyl)-4,5,6,7-tetrahydro-1H-pyrazolo[4,3-c]pyridin-1-yl}-3-(4-pyridin-2-ylpiperidin-1-yl)propan-2-ol]
30 | CS(=O)(=O)N1CCc2c(c(-c3ccc(C(F)(F)F)c(SCCN4CCOCC4)c3)nn2CC(O)CN2CCC(c3ccccn3)CC2)C1 (stereo not shown) [Example 182, 1-[5-(Methylsulfonyl)-3-{3-[(2-morpholin-4-ylethyl)sulfanyl]-4-(trifluoromethyl)phenyl}-4,5,6,7-tetrahydro-1H-pyrazolo[4,3-c]pyridin-1-yl]-3-(4-pyridin-2-ylpiperidin-1-yl)propan-2-ol]
230 | CC(=O)N1CCN(CCSc2cc(-c3nn(CC(O)CN4CCC(O)(c5ccccn5)CC4)c4c3CN(S(C)(=O)=O)CC4)ccc2C(F)(F)F)CC1 (stereo not shown) [Example 858, 1-(3-{3-[3-{[2-(4-Acetylpiperazin-1-yl)ethyl]sulfanyl}-4-(trifluoromethyl)phenyl]-5-(methylsulfonyl)-4,5,6,7-tetrahydro-1H-pyrazolo[4,3-c]pyridin-1-yl}-2-hydroxypropyl)-4-pyridin-2-ylpiperidin-4-ol]
20 | CC1CCN(CCSc2cc(-c3nn(C[C@@H](O)CN4CCC(C5CCCCC5)CC4)c4c3CN(S(C)(=O)=O)CC4)ccc2C(F)(F)F)CC1 [Example 741, (2S)-1-(4-Cyclohexylpiperidin-1-yl)-3-{3-[3-{[2-(4-methylpiperidin-1-yl)ethyl]sulfanyl}-4-(trifluoromethyl)phenyl]-5-(methylsulfonyl)-4,5,6,7-tetrahydro-1H-pyrazolo[4,3-c]pyridin-1-yl}propan-2-ol]
430 | CS(=O)(=O)N1CCc2c(c(-c3ccc(C(F)(F)F)c(SCCNCCc4ccccc4)c3)nn2CCCN2CCC(N3CCCC3=O)CC2)C1 [Example 767, 1-[1-(3-{5-(Methylsulfonyl)-3-[3-({2-[(2-phenylethyl)amino]ethyl}sulfanyl)-4-(trifluoromethyl)phenyl]-4,5,6,7-tetrahydro-1H-pyrazolo[4,3-c]pyridin-1-yl}propyl)piperidin-4-yl]pyrrolidin-2-one]
250 | CC1(C)CCN(C[C@H](O)Cn2nc(-c3ccc(C(F)(F)F)c(SCCN4CCCC(F)C4)c3)c3c2CCN(S(C)(=O)=O)C3)CC1 (stereo partly drawn) [Example 559, (2S)-1-(4,4-Dimethylpiperidin-1-yl)-3-{3-[3-{[2-(3-fluoropiperidin-1-yl)ethyl]sulfanyl}-4-(trifluoromethyl)phenyl]-5-(methylsulfonyl)-4,5,6,7-tetrahydro-1H-pyrazolo[4,3-c]pyridin-1-yl}propan-2-ol]
1650 | CS(=O)(=O)N1CCc2c(c(-c3ccc(Cl)c(SCc4ccccc4)c3)nn2CCCN2CCOCC2)C1 [Example 128, 3-(3-Benzylsulfanyl-4-chloro-phenyl)-5-methanesulfonyl-1-(3-morpholin-4-yl-propyl)-4,5,6,7-tetrahydro-1H-pyrazolo[4,3-c]pyridine]
20 | COC(=O)C(=O)N1CCc2c(c(-c3ccc(C(F)(F)F)c(SCCN4CCCCC4)c3)nn2CC(O)CN2CCC(N3CCCC3=O)CC2)C1 (stereo not shown) [Example 244, Methyl(1-{2-hydroxy-3-[4-(2-oxopyrrolidin-1-yl)piperidin-1-yl]propyl}-3-{3-[(2-piperidin-1-ylethyl)sulfanyl]-4-(trifluoromethyl)phenyl}-1,4,6,7-tetrahydro-5H-pyrazolo[4,3-c]pyridin-5-yl)(oxo)acetate]
180 | CC1CCCCN1CCSc1cc(-c2nn(CCCN3CCC(N4CCCC4=O)CC3)c3c2CN(S(C)(=O)=O)CC3)ccc1C(F)(F)F (stereo not shown) [Example 18, 1-{1-[3-(5-Methanesulfonyl-3-{3-[2-(2-methyl-piperidin-1-yl)-ethylsulfanyl]-4-trifluoromethyl-phenyl}-4,5,6,7-tetrahydro-pyrazolo[4,3-c]pyridin-1-yl)-propyl]-piperidin-4-yl}-pyrrolidin-2-one]
370 | CS(=O)(=O)N1CCc2c(c(-c3ccc(C(F)(F)F)c(SCCN4CCCC(F)C4)c3)nn2C[C@@H](O)CN2CCSCC2)C1 (stereo partly drawn) [Example 502, (2S)-1-{3-[3-{[2-(3-Fluoropiperidin-1-yl)ethyl]sulfanyl}-4-(trifluoromethyl)phenyl]-5-(methylsulfonyl)-4,5,6,7-tetrahydro-1H-pyrazolo[4,3-c]pyridin-1-yl}-3-thiomorpholin-4-ylpropan-2-ol]
35 | CS(=O)(=O)N1CCc2c(c(-c3ccc(C(F)(F)F)c(SCCN4CCCCC4)c3)nn2CC(O)CN2CCN(c3ccccc3)CC2)C1 (stereo not shown) [Example 659, 1-[5-(Methylsulfonyl)-3-{3-[(2-piperidin-1-ylethyl)sulfanyl]-4-(trifluoromethyl)phenyl}-4,5,6,7-tetrahydro-1H-pyrazolo[4,3-c]pyridin-1-yl]-3-(4-phenylpiperazin-1-yl)propan-2-ol]
260 | CN1CCc2c(c(-c3ccc(C(F)(F)F)c(SCCN4CCCCC4)c3)nn2CC(O)CN2CCC(c3ccccn3)CC2)C1 (stereo not shown) [Example 248, 1-(5-Methyl-3-{3-[(2-piperidin-1-ylethyl)sulfanyl]-4-(trifluoromethyl)phenyl}-4,5,6,7-tetrahydro-1H-pyrazolo[4,3-c]pyridin-1-yl)-3-(4-pyridin-2-ylpiperidin-1-yl)propan-2-ol]
450 | CS(=O)(=O)N1CCc2c(c(-c3ccc(C(F)(F)F)c(SCCN4CCCC(F)C4)c3)nn2C[C@@H](O)CN2CCCCCC2)C1 (stereo partly drawn) [Example 470, (2S)-1-Azepan-1-yl-3-{3-[3-{[2-(3-fluoropiperidin-1-yl)ethyl]sulfanyl}-4-(trifluoromethyl)phenyl]-5-(methylsulfonyl)-4,5,6,7-tetrahydro-1H-pyrazolo[4,3-c]pyridin-1-yl}propan-2-ol]
45 | CC1CCN(CCSc2cc(-c3nn(C[C@@H](O)CN4CCC(NC(=O)C(C)(C)O)CC4)c4c3CN(S(C)(=O)=O)CC4)ccc2C(F)(F)F)CC1 [Example 818, 2-Hydroxy-N-{1-[(2S)-2-hydroxy-3-{3-[3-{[2-(4-methylpiperidin-1-yl)ethyl]sulfanyl}-4-(trifluoromethyl)phenyl]-5-(methylsulfonyl)-4,5,6,7-tetrahydro-1H-pyrazolo[4,3-c]pyridin-1-yl}propyl]piperidin-4-yl}-2-methylpropanamide]
3850 | CS(=O)(=O)NC1CCN(CC(O)Cn2nc(-c3ccc(C(F)(F)F)c(SCCN4CCCCC4)c3)c3c2CCNC3)CC1 (stereo not shown) [Example 381, N-{1-[2-Hydroxy-3-(3-{3-[(2-piperidin-1-ylethyl)sulfanyl]-4-(trifluoromethyl)phenyl}-4,5,6,7-tetrahydro-1H-pyrazolo[4,3-c]pyridin-1-yl)propyl]piperidin-4-yl}methanesulfonamide]
